For assay [1], the target named is Kappa-type opioid receptor (Cavia porcellus, UniProt P41144).
The target in the next assay is Mu-type opioid receptor (Cavia porcellus, UniProt P97266).

By UniProt entry, the sequences of proteins in these tests, tags left out. Where a name states a change or a piece, a line headed by the entry shows the natural chain unless it says otherwise.
UniProt P41144: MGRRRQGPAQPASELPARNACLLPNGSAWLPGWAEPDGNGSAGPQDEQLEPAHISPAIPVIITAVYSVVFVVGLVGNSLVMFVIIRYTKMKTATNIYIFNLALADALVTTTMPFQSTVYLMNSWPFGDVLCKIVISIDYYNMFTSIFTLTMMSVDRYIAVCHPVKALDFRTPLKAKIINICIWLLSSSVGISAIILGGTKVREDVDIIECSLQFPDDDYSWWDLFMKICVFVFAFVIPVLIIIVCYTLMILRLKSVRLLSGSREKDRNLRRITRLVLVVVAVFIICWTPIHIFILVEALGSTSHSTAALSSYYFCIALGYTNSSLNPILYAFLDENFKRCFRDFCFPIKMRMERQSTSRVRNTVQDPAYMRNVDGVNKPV
UniProt P97266, whole entry: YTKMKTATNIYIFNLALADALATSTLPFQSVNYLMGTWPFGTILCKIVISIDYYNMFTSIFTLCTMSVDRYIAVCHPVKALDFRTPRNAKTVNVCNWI

Structures are written as SMILES.

On to `C[C@H]1C2Cc3ccc(C(N)=O)cc3[C@@]1(C)CCN2CC1CC1` [8-CAC], for which the results for the Ki (in assay [1]; at Mu-type opioid receptor) were 0.42 nM and 0.34 nM, respectively.

The Ki is the equilibrium dissociation constant of an inhibitor or competing ligand from its target. A low value points to higher affinity.

(Values after BindingDB's records for doi:10.1124/jpet.302.1.374 (University of Rochester, 2002).)
